This experiment deals with T1, DPP-IV from pig kidney (Sus scrofa, UniProt P22411).
T1 construct: The enzyme used is DPP-IV from pig kidney; purchased Sigma D7052; host or cells: pig kidney
Nature of the experiment: In-vitro determination of the inhibition of DPP-IV by synthetic peptides (Example 14). To be noted: Table 13; substrate Gly-L-Pro-p-nitroanilide, pH 8.0, 37° C.; read-out: inhibitory activity of DPP-IV (IC50). It counts as biochemical. On the procedure:
The inhibitory activity of synthetic peptides can be measured in vitro according to the following protocol:
25 μl of the substrate Gly-L-Pro-p-nitroanilide in 0.1 M Tris-HCL buffer (pH 8.0) at 1.6 mM is mixed with 25 μl of the peptide sample or of reference inhibitor at different concentrations. The samples are solubilized beforehand in Tris HCL buffer (pH8.0).
The reaction medium is incubated for 60 min at 37° C. and then the reaction is stopped by adding 100 μl of 1M sodium acetate buffer (pH4).
The quantity of product formed (p-nitroanilide) is measured by reading the absorbance at 385 nm using the Fluostar Omega spectrophotometer (BMG Labtech, Germany).
All the inhibition tests are carried out in triplicate.
The substrate used is Gly-L-Pro-p-nitroanilide hydrochloride (available from Sigma under reference G0513).
The enzyme used is DPP-IV from pig kidney (available from Sigma under reference D7052).
The reference inhibitor is Diprotin A, corresponding to the Ile-Pro-Ile tripeptide (available from Sigma under reference 19759).

The chains behind the UniProt entries cited, without tags or fusion partners. Where a name states a change or a piece, a line headed by the entry shows the natural chain unless it says otherwise.
UniProt P22411: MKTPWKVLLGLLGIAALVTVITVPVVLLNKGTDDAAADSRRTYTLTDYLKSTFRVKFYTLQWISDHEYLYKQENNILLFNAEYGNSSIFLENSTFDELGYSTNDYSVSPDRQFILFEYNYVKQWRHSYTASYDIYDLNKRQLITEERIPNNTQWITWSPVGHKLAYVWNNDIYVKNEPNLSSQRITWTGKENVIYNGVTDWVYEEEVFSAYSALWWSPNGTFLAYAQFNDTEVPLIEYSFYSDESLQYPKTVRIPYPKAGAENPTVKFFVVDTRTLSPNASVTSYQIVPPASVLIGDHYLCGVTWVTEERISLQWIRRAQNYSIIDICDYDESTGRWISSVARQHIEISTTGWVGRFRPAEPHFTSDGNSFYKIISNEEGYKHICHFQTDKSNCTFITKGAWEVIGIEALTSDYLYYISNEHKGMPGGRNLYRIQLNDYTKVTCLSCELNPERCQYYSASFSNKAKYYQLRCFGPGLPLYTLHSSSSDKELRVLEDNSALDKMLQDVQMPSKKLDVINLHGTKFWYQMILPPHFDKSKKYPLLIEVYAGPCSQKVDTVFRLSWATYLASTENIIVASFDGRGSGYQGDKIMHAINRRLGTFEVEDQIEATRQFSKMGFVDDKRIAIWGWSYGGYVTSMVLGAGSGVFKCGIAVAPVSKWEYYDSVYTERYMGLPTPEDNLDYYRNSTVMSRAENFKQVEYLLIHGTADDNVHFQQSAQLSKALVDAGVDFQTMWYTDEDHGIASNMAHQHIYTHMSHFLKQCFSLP

In general, IC50 refers to the concentration needed to halve the response being measured. As to `CC[C@H](C)[C@H](N)C(=O)N1CCC[C@H]1C(=O)N[C@H](C(=O)O)[C@@H](C)CC` [Diprotin A (IPI), Ile-Pro-Ile, reference compound], the IC50 was 12.1 ± 0.2 µM.

The values are drawn from patent publication US10500245B2, “Compositions for preventing and/or treating pathological conditions associated with alpha-glucosidase” (UNIVERSITE DE LA ROCHELLE, priority 2014, dated 2019).
